Data as given in patent US10266506B2, “Compounds for use in imaging, diagnosing and/or treatment of diseases of the central nervous system or of tumors” (PIRAMAL IMAGING SA, priority 2007, dated 2019).

Experiment: Plasma radioactivity and plasma metabolites after injection in a cynomolgus monkey
Text: Plasma radioactivity profiles have been monitored over time. […] In addition, metabolites occurring in plasma over time have been monitored (FIGS. 8 and 9) for both ligands.

C#CCN(C)[C@H](C[18F])Cc1ccccc1 [[^18F]compound 13, N-[(2S)-1-(^18F)fluoro-3-phenylpropan-2-yl]-N-methylprop-2-yn-1-amine]
plasma radioactivity of mother compound relative to [11C]Deprenyl (30 and 45 min time points): about double
metabolite b relative to that observed for [11C]Deprenyl (30 min time point): only one third
